We go through one substance from patent publication US11160272B2, “Methods for preserving tissue with medical grade honey” (TRITICUM EXPLOITATIE B.V., priority 2017, dated 2021).

For the data set, the system named is bovine ovarian cortex tissue. Description: Cellular cytotoxicity (lactate dehydrogenase, LDH, in cell culture supernatant). It is filed as cell-based. The note with it: 4 h, 24 h and 48 h; no statistically significant differences between groups/time periods. Here is the method: Four mature crossbred beef cows (12 months of age) were used for this study. After collection in a local abattoir, the bovine ovarian cortex tissue samples (dissected from medulla and further cut into ultra-thin strips) were cultured in vitro [TCM-199 medium with 10% cow serum] and distributed in four groups, including (1) blank control group, (2) VEGF (50 ng.mL-1) group, (3) L-Mesitran Soft (0.2%) group, and (4) L-Mesitran Ointment (0.2%) group. The 0.2% v/v concentration (L-Mesitran) was chosen according to the highest reported pro-angiogenic effect for this medical grade honey in an in vitro tissue culture. The ovarian cortex endothelial immunolocalization was quantified using Factor VIII [9] R Ag. […] Cellular cytotoxicity (quantitation of lactate dehydrogenase, LDH [11], in cell culture supernatant) was also evaluated in the same mentioned time periods (CytoTox 96® Non-Radioactive Cytotoxicity Assay G1782, Promega GloMax Multi Detection System).
Data from ovarian cortex tissue endothelial density (immunohistochemistry data) and LDH quantification in cell culture supernatant, were analysed using the proc glimmix of SAS (Statistical Analysis Systems, SAS Inst., Inc., Cary, N.C., USA). […] The means of each treatment/hours were calculated and compared by the PDIFF multiple comparison test. […]

Take VEGF: the “LDH (cytotoxicity) trend over time periods” value is on record as “increasing trend”.
